## Yeast mating assay B: variants of the scFv Ab-14

Reference: Li et al. 2023, doi:10.1038/s41467-023-39022-2. File: FLAb, binding data.

Target: peptide PDVDLGDISGINAS, taken from heptad repeat 2 (HR2) of SARS-CoV-2 spike.

Each scFv is VH, a (GGGGS)3 linker, VL, as in the parent Ab-14, and differs from it in the CDRs of the light chain only.
VH: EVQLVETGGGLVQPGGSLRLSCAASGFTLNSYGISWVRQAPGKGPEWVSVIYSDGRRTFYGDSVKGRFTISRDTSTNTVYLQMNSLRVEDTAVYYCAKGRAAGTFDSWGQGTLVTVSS
VL: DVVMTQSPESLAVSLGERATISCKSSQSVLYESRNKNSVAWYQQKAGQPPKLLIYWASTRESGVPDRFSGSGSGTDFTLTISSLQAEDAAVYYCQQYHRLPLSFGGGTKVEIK

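The parent was found by panning a naive human phage display library on the peptide. This is the validation round: designs drawn from the data on random variants, tested in the same kind of assay. Their group label is 14L_GP_HC (GP: Gaussian process model; HC: hill climbing; a sequence that several methods proposed may carry one label only). The scFvs were displayed on barcoded MATa yeast, the peptide on MATalpha yeast. Pairs that bind mate more often; barcode pairs of the diploids are counted by sequencing. Scores were corrected for input abundance and mapped to Kd with protein pairs of known affinity run in the same pool. Mating was done six times.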

Each variant is given by its three light chain CDRs, as the data file delimits them; those of the parent are KSSQSVLYESRNKNSVA, WASTRES, QQYHRLPLS.
Affinities are written as log10 Kd with Kd in nM; a lower number is a better binder.
Averages over replicates are reported, and they cover detected replicates only.
An entry "nd" has no value in the source: the pair was not observed among the diploids in that replicate. This suggests poor binding but is not conclusive.
The authors averaged sequences with at least three values out of six and counted those with two or fewer as poor binders.

Variant HSSPSGLYESRNKNSVA | NASTRES | QQYHRLPLS showed -0.21, -0.35, -0.56, -0.64, -0.48, -0.22 (mean -0.41; controls 0 of 18).
Variant KVSQSVLYESRDKNSVA | DASTRCS | QQYHRLPLE showed 0.08, 0.52, 0.11, 0.67, 0.05, 0.86 (mean 0.38; controls 0 of 18).
Variant KLEQSIDYESRNKNSVA | NASTRES | QQYHRLPLS showed -0.21, 0.09, -0.35, -0.30, -0.23, -0.05 (mean -0.17; controls 0 of 18).
Variant KSSISKLYESRNTNSVA | EASTRES | QQYHRLPLS showed 1.08, 1.24, 0.93, 0.57, 0.47, 0.58 (mean 0.81; controls 0 of 18).
Variant KLSQSVLYESRTKNSVA | NASTRES | QQYHQLPLS showed 1.53, 0.81, 0.93, 0.59, 1.42, 1.57 (mean 1.14; controls 1 of 18).
Variant KSSISYLPESRNKNSVA | EASTRES | QQYHRLPLS showed 0.50, 0.40, -0.41, -0.19, -0.36, 0.49 (mean 0.07; controls 0 of 18).
Variant KSSWSVLYESGNKNSVA | EASTRED | QQYHRLPLS showed 0.47, 0.30, 0.25, 0.03, 0.16, 0.42 (mean 0.27; controls 2 of 18).
Variant KSSQSQLYEDRVKNSVA | GASTRES | QQYHRLPLS showed 0.26, 0.18, 0.02, -0.01, 0.15, 0.09 (mean 0.12; controls 0 of 18).
Variant KVSQSVLYESRMKNSVA | NASTRCS | QQYHRLPLE showed 0.41, 0.18, 0.03, 0.02, 0.17, 0.33 (mean 0.19; controls 2 of 18).
Variant KVPQGVLYESRNKNSVA | GASVRES | QQYHRLPLS showed -0.02, -0.22, -0.18, -0.29, -0.24, -0.11 (mean -0.18; controls 2 of 18).
Variant KLQQSQEYESRNKNSVA | HASTRED | QQYHRLPLS showed 0.47, 0.40, 0.39, 0.43, 0.39, 0.55 (mean 0.44; controls 1 of 18).
Variant KSSWSWLYEDRVKNSVA | GASTRES | QQYHRLPLS showed 0.76, 0.29, 0.44, 0.20, 0.49, 0.04 (mean 0.37; controls 1 of 18).
Variant HASPSVAYESRNKNSVA | NASTREQ | QQYHRLPLS showed -0.06, 0.14, -0.26, -0.25, -0.38, -0.16 (mean -0.16; controls 0 of 18).
Variant KVSQSVLYESRMKNSVA | EASTRCS | QQYHRLPLS showed 0.22, 0.18, 0.20, 0.01, -0.03, 0.45 (mean 0.17; controls 1 of 18).
Variant KVSISFLLESRNKNSVA | EASTRES | QQYHRLPLS showed 0.35, 0.15, 0.03, -0.59, -0.17, -0.15 (mean -0.07; controls 0 of 18).
Variant KSSQSFWYESRNVNSVA | GASTRDS | QQYHRLPLS showed 0.46, 0.38, 0.21, 0.12, 0.55, 0.48 (mean 0.37; controls 0 of 18).
Variant KLPQEVLYESRNKNSVA | GASTRES | QQYHRLPLS showed -0.42, -0.44, -0.61, -0.49, -0.53, -0.50 (mean -0.50; controls 1 of 18).
Variant KQSESVLYESVNKNSVA | DASTRES | QQYHRLPLS showed 0.19, 0.10, -0.10, -0.06, 0.07, 0.04 (mean 0.04; controls 4 of 18).
Variant KLSQSTLCESRNKNSVA | DASTRES | QQYHRLPLS showed -0.14, -0.17, -0.27, -0.16, -0.08, -0.14 (mean -0.16; controls 0 of 18).
Variant KSGQAVLYESRNKNSVA | GASLRES | QQYHRLPLS showed 1.09, 0.81, 0.84, 0.83, 1.24, 0.81 (mean 0.94; controls 0 of 18).
Variant KSSQSVDTESRNKNSVA | DASTRES | QQYHRLPLS showed 0.25, 0.11, 0.17, 0.17, 0.26, 0.20 (mean 0.19; controls 1 of 18).
Variant KSPQGALYESRNKNSVA | GASTRES | QQYHRLPLS showed 0.24, 0.25, 0.22, -0.03, 0.23, 0.26 (mean 0.20; controls 3 of 18).
Variant KLPQQTLYETRNKNSVA | WASTREE | QQYHRLPLS showed 0.01, -0.13, -0.25, -0.19, 0.01, 0.36 (mean -0.03; controls 0 of 18).
Variant KFSQSVLYESTTTNSVA | NASTRES | QQYHRLPLS showed -0.08, 0.01, -0.14, -0.06, -0.01, 0.12 (mean -0.03; controls 1 of 18).
Variant KFGQGVLYESRNKNSVA | GASTRES | QQYHRLPLH showed 0.96, 1.25, 1.59, 1.01, 1.24, 1.45 (mean 1.25; controls 0 of 18).
Variant KSSQSWLYESRNKNSVA | GASVREV | QQYHRLPLS showed -0.26, -0.32, -0.20, -0.22, -0.19, -0.13 (mean -0.22; controls 1 of 18).
Variant KFSQSWLYESRNKNSVA | GASTREV | QQYHRLPLS showed -0.07, -0.13, -0.10, -0.42, -0.12, -0.15 (mean -0.16; controls 0 of 18).
Variant KSSQSVLQESRNFNSVA | DASTRES | QQYHRLPLS showed 0.49, 1.17, -0.08, 0.55, 0.13, 0.71 (mean 0.49; controls 0 of 18).
Variant KSSQSWLYESRWKNSVA | GASQRES | QQYHRLPLS showed 0.48, 0.46, 0.71, 0.68, 0.69, 0.54 (mean 0.59; controls 1 of 18).
Variant KLSQSVLYESRNKNSVA | DASTRES | QQYQRLPLS showed -0.37, -0.56, -0.57, -0.72, -0.66, -0.50 (mean -0.56; controls 1 of 18).
Variant KVLQSVVYEGRNKNSVA | HASTRES | QQYHRLPLS showed 0.15, 0.20, 0.18, 0.14, 0.18, 0.54 (mean 0.23; controls 1 of 18).
Variant KSSQGVLYESRNKNSVA | GASLRES | QQYHRLPLS showed 0.60, 0.23, 0.23, 0.08, 0.28, 0.65 (mean 0.35; controls 0 of 18).
Variant KASQSVLYESRNKNSVA | GASTRES | QQYHRLPLI showed 0.34, 0.43, 0.61, 0.54, 0.87, 0.63 (mean 0.57; controls 0 of 18).
Variant KQSQSVLMESRNKNSVA | EASTRES | QQYHRLPLD showed nd, 2.20, 2.48, nd, nd, 2.72 (mean 2.47; controls 0 of 18).
Variant KLMQGALYESRNKNSVA | GASTRES | QQYHRLPLS showed 0.04, -0.03, -0.15, -0.14, 0.19, 0.28 (mean 0.03; controls 0 of 18).
Variant HSSPSVAYESRNKNSVA | NASTRLS | QQYHRLPLS showed 0.31, 0.58, 0.32, 0.76, 0.56, 0.69 (mean 0.54; controls 2 of 18).
Variant HVSPSWLYESRNKNSVA | NASTRES | QQYHRLPLS showed 0.18, 0.20, -0.18, -0.09, -0.17, 0.27 (mean 0.03; controls 3 of 18).

The opening 3 entries, copied out:

{"CDR-L1": "HSSPSGLYESRNKNSVA", "CDR-L2": "NASTRES", "CDR-L3": "QQYHRLPLS", "log10 Kd, replicates": "-0.21, -0.35, -0.56, -0.64, -0.48, -0.22", "mean log10 Kd (nM)": "-0.41", "control signals": "0 of 18"}
{"CDR-L1": "KVSQSVLYESRDKNSVA", "CDR-L2": "DASTRCS", "CDR-L3": "QQYHRLPLE", "log10 Kd, replicates": "0.08, 0.52, 0.11, 0.67, 0.05, 0.86", "mean log10 Kd (nM)": "0.38", "control signals": "0 of 18"}
{"CDR-L1": "KLEQSIDYESRNKNSVA", "CDR-L2": "NASTRES", "CDR-L3": "QQYHRLPLS", "log10 Kd, replicates": "-0.21, 0.09, -0.35, -0.30, -0.23, -0.05", "mean log10 Kd (nM)": "-0.17", "control signals": "0 of 18"}

Of ten entries with the parent sequence, four were seen in most replicates (averages 0.34 to 2.37), three in one and three in none, so single entries are noisy.
Values of this round are not directly comparable with the first-round values of the same sequences.
Three control strains display no target. For all light chain designs, 4% of the pairings with them gave a signal, with a median of 2.64 and one signal in twenty below 1.59, so weak values seen in few replicates may be background. For each scFv, signals with the empty controls are counted beside the result.